# Laboratory results published in US20110118202A1, “Molecules which Bind to the Dimerization Initiation Site (DIS) of HIV RNA, Their Synthesis and Their Applications as Drugs” (priority 2006, published 2011).
# Legend:
# [1] = tested on: subtype A DIS kissing-loop complex (23-mer RNA); test: Lead(II)-induced cleavage of the DIS loop, 23-mer RNA (footprinting); assay type: binding, HIV-1; settings: FIG. 21
# Procedure: Materials and Methods: Chemical footprinting experiments were performed on a 23-mer subtype A SL1 RNA or on RNA1-615, which corresponds to nucleotides 1-615 of HIV-1 Mal genomic RNA (Ennifar et al., J. Biol. Chem. 2003 278:2723-2730). Chemical modification was carried out either with dimethyl sulfate (DMS, Fluka) to test the accessibility of N1-A and N3-C positions or with lead acetate (Merck), which selectivity cleaves the subtype A DIS loop between the first and second nucleotides.
# The binding of aminoglycosides to DIS can be detected through several biochemical methods: it induces protection toward chemical modification with dimethyl sulfate (DMS) or toward a specific cleavage in the subtype A promoted by lead (II); it also induces slower migration on non-denaturated gel.
# At this stage, it was unclear if this class of compound is able to bind to the DIS kissing-loop complex. To compare binding of 4,5-disubstituted and 4,6-disubstituted DOS, a 23-mer RNA corresponding to the subtype A DIS, which was allowed to dimerize in conditions permitting crystallization of the kissing-loop complex, was used. As previously shown, lead (II) induced a specific cleavage in the subtype A DIS loop that is sensitive to the binding of aminoglycoside (FIG. 21).
# [2] = tested on: subtype F DIS of HIV-1 genomic RNA; test: In situ DMS footprinting in infected CEMx174 cells and virions, subtype F DIS; settings: infected cells and viral particles; 3 mM aminoglycoside in culture
# [3] = tested on: subtype F kissing-loop complex; test: DMS footprinting, subtype F DIS in the context of RNA1-615; assay type: binding, HIV-1
compound,measurement,setting,value
NC[C@@H]1O[C@H](O[C@H]2[C@@H](O)[C@H](O[C@@H]3[C@@H](O)[C@H](N)C[C@H](N)[C@H]3O[C@H]3O[C@H](CO)[C@@H](O)[C@H](O)[C@H]3N)O[C@@H]2CO)[C@H](N)[C@@H](O)[C@@H]1O [paromomycin],"inhibition of lead-induced cleavage of the DIS loop, relative efficiency",[1],equally inhibited
same,reduction of alkylation (DMS) of A280 of the subtype F DIS,[2],more than two-fold
same,binding to the subtype F kissing-loop complex by DMS footprinting,[3],efficiently bound
